Molecular target: T1, recombinant human protein tyrosine phosphate 1B (PTP1B, EC 3. 1. 3. 48) (Homo sapiens, UniProt P18031)
T1 sequence (P18031 1-435): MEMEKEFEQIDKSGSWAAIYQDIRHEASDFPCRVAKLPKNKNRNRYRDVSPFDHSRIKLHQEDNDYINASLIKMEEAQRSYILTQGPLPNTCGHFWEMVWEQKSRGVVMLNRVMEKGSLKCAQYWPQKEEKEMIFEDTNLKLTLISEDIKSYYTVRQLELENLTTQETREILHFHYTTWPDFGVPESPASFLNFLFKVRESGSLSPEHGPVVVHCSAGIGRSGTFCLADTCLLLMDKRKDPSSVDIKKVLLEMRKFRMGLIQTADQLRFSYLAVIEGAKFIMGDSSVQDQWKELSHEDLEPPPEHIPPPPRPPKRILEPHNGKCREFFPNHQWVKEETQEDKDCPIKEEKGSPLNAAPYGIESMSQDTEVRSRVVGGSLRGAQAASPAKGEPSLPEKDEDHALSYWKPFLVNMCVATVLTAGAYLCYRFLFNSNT
Test: biochemical
Procedure: The PTP1B inhibitory assay was carried out using a slight modification to literature reported method. p-nitrophenyl phosphate (pNPP) was used as a substrate for the measurement of enzyme activity. Buffer solution consisted of 25 mM Tris–HCl (pH 7.5), 2 mM β-mercaptoethanol, 1 mM (ethylenediaminetetraacetic acid) EDTA, and 1 mM dithiothreitol (DTT). The assay was performed by adding 10 μL test compound solution to 20 μL of enzyme (1 μg/ml), and then mixing with 40 μL of 4 mM pNPP in 130 μL of the given buffer using 96 well plate at 37 °C for 10 min. […] Lineweaver–Burk and Dixon plots methods were used to determine kinetic parameters. […]
Lineweaver–Burk plots were used for the analysis of enzyme’s inhibitory kinetics, caused by the tested bioactive compounds, and its comparison was performed with the data collected in the absence of inhibitors. Steady-state rates were determined at different inhibitor concentrations and at changing concentrations of substrate, then enzyme inhibition mechanism and related kinetic parameters were determined. […]
To determine enzyme inhibition parameters, an experiment was performed having substrate concentrations range (pNPP; 0.4–1.6 mM, pNPG; 0.075–0.3 mM), and different concentrations of tested compound, as indicated. […] Kik and Kiv rate constants were calculated according to Equations (4) and (5) proposed by Yang’s method. […]

**Q.** For `OCC(CO)N[C@H]1C[C@](O)(CO)[C@@H](O)[C@H](O)[C@H]1O` [Voglibose, reference compound], which IC50 is on record?
**A.** > 200 µM

— PMC6010085, “Inhibition of protein tyrosine phosphatase (PTP1B) and α-glucosidase by geranylated flavonoids from Paulownia tomentosa” (Journal of Enzyme Inhibition and Medicinal Chemistry, 2017)
